## Curated experimental data: melting point values

Melting points are in °C.
The databases behind each value are named after "via".

For CC(=O)OC1[C@H]2CC[C@@H]3[C@]1(C[C@@H](O)[C@@]1(O)[C@@H](C[C@H](O)C1(C)C)[C@]3(C)O)C[C@@]2(C)O (stereo partly specified) [Grayanotoxin I] the data give MP 259 °C (via PubChem). CCC(N)P(=O)(O)O (stereo not drawn) [(1-Aminopropyl)phosphonic acid] has MP 252 °C (via OCHEM). Cc1ccc(C(=O)CBr)cc1C [2-Bromo-1-(3,4-dimethyl-phenyl)-ethanone] has MP 64 °C (via OCHEM). For O=Cc1cnn(Cc2ccccc2)c1 [1-Benzyl-1H-pyrazole-4-carbaldehyde] the data give MP 44 °C (via OCHEM). Listed for Cn1cccc1C(=O)CCl [2-Chloro-1-(1-methyl-1H-pyrrol-2-yl)-ethanone]: MP 35 °C (via OCHEM). The entry for Clc1cc(Cl)c(-c2ccccc2)c(Cl)c1 [2,4,6-Trichlorobiphenyl] lists MP 63 °C (via QSARDB).

The entry for CCOP(=O)(OCC)OP(=O)(OCC)OCC [Tetraethyl pyrophosphate] lists MP 0 °C (via PubChem). The entry for Nc1ccc(CN2CCN(Cc3ccccc3)CC2)cc1 [4-[(4-Benzylpiperazin-1-yl)methyl]aniline] lists MP 97 °C (via OCHEM). COc1ccc(CN2CCNCC2)cc1OC [1-(3,4-dimethoxybenzyl)piperazine] has MP 33.5 °C (via OCHEM). CCCC1(CCC)C(=O)NC(=O)NC1=O [Propylbarbital] has MP 146 °C (via OCHEM). The entry for N#CCN1CCN(Cc2ccccc2)CC1 [2-(4-benzylpiperazin-1-yl)acetonitrile] lists MP 50 °C (via OCHEM). The entry for c1cnc2[nH]cc(C3CCNCC3)c2c1 [4-{1H-pyrrolo[2,3-b]pyridin-3-yl}piperidine] lists MP 160 °C (via OCHEM).

The entry for C[Se]C [Methane, selenobis-] lists MP -87.2 °C (via PubChem). The entry for COc1ccc(C(=CC(=O)N2CCOCC2)c2ccc(F)cc2)cc1OC [Flumorph] lists MP 108 °C (via OCHEM). Listed for [C-]#[O+].[C-]#[O+].[C-]#[O+].[C-]#[O+].[Co+].[H-] [Cobalt hydrocarbonyl [CoH(CO)4]]: MP -26.11 °C (via PubChem). For CC(C)(C)N(NC(=O)c1ccccc1)C(=O)c1ccccc1C(F)(F)F [N'-Benzoyl-N-tert-butyl-2-(trifluoromethyl)benzohydrazide] the data give MP 172 °C (via OCHEM). Listed for N#Cc1nn(-c2c(Cl)cc(C(F)(F)F)cc2Cl)c(N)c1SSc1c(C#N)nn(-c2c(Cl)cc(C(F)(F)F)cc2Cl)c1N: MP 297.6 °C (via eChemPortal). The entry for N#Cc1ccc(S(=O)(=O)Cl)cc1Cl [3-Chloro-4-cyanobenzene-1-sulfonyl chloride] lists MP 52 °C (via OCHEM).

NCC(O)c1ccc(F)c(F)c1 (stereo not drawn) [2-Amino-1-(3,4-difluorophenyl)ethan-1-ol] has MP 54 °C (via OCHEM). CCC1NC(=O)C2C(Cl)C(Cl)CN2C(=O)C(CO)NC(=O)CC(c2ccccc2)NC(=O)C(CO)NC1=O (stereo not drawn) [Cyclochlorotine] has MP 251 °C (via PubChem). CCCCCCCCCCCCCOP(OCCCCCCCCCCCCC)Oc1cc(C)c(C(CCC)c2cc(C(C)(C)C)c(OP(OCCCCCCCCCCCCC)OCCCCCCCCCCCCC)cc2C)cc1C(C)(C)C is reported with MP -28.68 °C (via eChemPortal). The entry for CCCn1c(C)c(C(=O)O)c2cc(OC)ccc21 [5-Methoxy-2-methyl-1-propyl-1H-indole-3-carboxylic acid] lists MP 172 °C (via OCHEM). O=C1NC(=O)C2(CCC2)C(=O)N1 [6,8-Diazaspiro[3.5]nonane-5,7,9-trione] has MP 257 °C (via OCHEM). The entry for CC1CCCC(C)N1C(=O)CCl (stereo not drawn) [2-chloro-1-(2,6-dimethylpiperidin-1-yl)ethanone] lists MP 72 °C (via OCHEM).

The entry for Oc1ccc2c(c1)CNCC2 [1,2,3,4-tetrahydroisoquinolin-7-ol] lists MP 195 °C (via OCHEM). Cc1nnc2n1-c1ccc(Cl)cc1C(c1ccccc1Cl)=NC2 [Triazolam] is reported with MP 234 °C (via OCHEM, PubChem, QSARDB). CCN1CCc2nc3ccccc3c(C(=O)O)c2C1 has MP 279 °C (via OCHEM). Cc1cc(C(=O)O)c(C)n1Cc1ccccc1 [1-benzyl-2,5-dimethyl-1H-pyrrole-3-carboxylic acid] is reported with MP 198 °C (via OCHEM). NC(C(=O)O)c1ccc(Cl)cc1 (stereo not drawn) [Benzeneacetic acid, .alpha.-amino-4-chloro-] has MP 220 °C (via OCHEM). PCCC(Cl)Cl [(3,3-Dichloropropyl)phosphane] is reported with MP 135.5 °C (via OCHEM).

For O=C(CCl)N1CCCCCCC1 [1-(Azocan-1-yl)-2-chloroethan-1-one] the data give MP 67 °C (via OCHEM). For Clc1ccc(-c2ccccc2)c(Cl)c1 [2,4-Dichlorobiphenyl] the data give MP 24 °C (via QSARDB). The entry for CCN(N=O)C(N)=O [1-Ethyl-1-nitrosourea] lists MP 103 °C (via PubChem, QSARDB). Listed for CN1CCN(Cc2ccc(N)cc2)CC1 [4-(4-Methylpiperazin-1-ylmethyl)phenylamine]: MP 97 °C (via OCHEM). For COc1c(F)cc(CBr)cc1F [5-(Bromomethyl)-1,3-difluoro-2-methoxybenzene] the data give MP 40.5 °C (via OCHEM). The entry for CC[C@H]1C[C@@H]2C[C@H]3c4[nH]c5ccc(OC)cc5c4CCN(C2)[C@@H]13 [Ibogaine] lists MP 148 °C (via OCHEM, PubChem).

Cc1n[nH]c(C)c1NC(=O)CCl [2-chloro-N-(3,5-dimethyl-1H-pyrazol-4-yl)acetamide] has MP 161 °C (via OCHEM). O=C(CCl)c1ccc(F)c(F)c1 [2-Chloro-1-(3,4-difluoro-phenyl)-ethanone] is reported with MP 38 °C (via OCHEM). Listed for CCOC(C(=O)O)(c1ccccc1)c1ccccc1 [Acetic acid, diphenylethoxy-]: MP 114 °C (via OCHEM). Listed for N#Cc1ccc(F)c(CBr)c1 [3-(Bromomethyl)-4-fluorobenzonitrile]: MP 45 °C (via OCHEM). Listed for Clc1ccc(-c2c(Cl)cc(Cl)c(Cl)c2Cl)c(Cl)c1Cl [2,2',3,3',4,4',6-Heptachlorobiphenyl]: MP 122 °C (via QSARDB). O=C(CCl)NCc1ccco1 [2-chloro-N-(2-furylmethyl)acetamide] is reported with MP 82 °C (via OCHEM).

NCC(O)c1ccccc1F (stereo not drawn) [2-Amino-1-(2-fluorophenyl)ethan-1-ol] is reported with MP 63 °C (via OCHEM). O=C(O)c1cn(Cc2ccccc2)nn1 [1-Benzyl-1H-1,2,3-triazole-4-carboxylic acid] has MP 177 °C (via OCHEM). For C/[N+]([O-])=N/CO[C@@H]1O[C@H](CO)[C@@H](O)[C@H](O)[C@H]1O [Cycasin] the data give MP 154 °C (via PubChem). The entry for O=C(CCl)c1ccc[nH]1 [2-Chloro-1-(1H-pyrrol-2-yl)ethan-1-one] lists MP 115 °C (via OCHEM). The entry for Nc1ccc2c(c1)oc1ccccc12 [3-Dibenzofuranamine] lists MP 90 °C (via OCHEM). Listed for O=C(CCl)c1cc([N+](=O)[O-])c[nH]1 [2-chloro-1-(4-nitro-1H-pyrrol-2-yl)ethanone]: MP 200 °C (via OCHEM).

Excerpt, the opening 5 entries:

The entry for CC(=O)OC1[C@H]2CC[C@@H]3[C@]1(C[C@@H](O)[C@@]1(O)[C@@H](C[C@H](O)C1(C)C)[C@]3(C)O)C[C@@]2(C)O (stereo partly specified) [Grayanotoxin I] lists MP 259 °C (via PubChem).
The entry for CCC(N)P(=O)(O)O (stereo not drawn) [(1-Aminopropyl)phosphonic acid] lists MP 252 °C (via OCHEM).
The entry for Cc1ccc(C(=O)CBr)cc1C [2-Bromo-1-(3,4-dimethyl-phenyl)-ethanone] lists MP 64 °C (via OCHEM).
The entry for O=Cc1cnn(Cc2ccccc2)c1 [1-Benzyl-1H-pyrazole-4-carbaldehyde] lists MP 44 °C (via OCHEM).
The entry for Cn1cccc1C(=O)CCl [2-Chloro-1-(1-methyl-1H-pyrrol-2-yl)-ethanone] lists MP 35 °C (via OCHEM).

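These are experimental values that the OPERA curators gathered from public databases to train and test their QSAR models. The files give a single number for a compound and property, which may rest on several reports. How each value was measured is not recorded, so precision varies. The measured form (salt, isomer or mixture) is not always the one drawn. Some upstream entries may be estimates or bounds without being marked so.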

Source: data files of OPERA 2.9 (Mansouri et al.), github.com/kmansouri/OPERA.